Target: Recombinant heterodimeric HCV NS3/NS4A protease (strain 1a) (Hepatitis C virus genotype 1a, UniProt P27958)
Assay: Spectrophotometric assay for HCV NS3/NS4a serine protease inhibitory activity (chromogenic ester substrates)
Type: biochemical
Conditions: Table 2; range classes

By UniProt entry, the sequences of proteins in these tests, tags left out. Residues count along the entry.
UniProt P27958, 1027-1657: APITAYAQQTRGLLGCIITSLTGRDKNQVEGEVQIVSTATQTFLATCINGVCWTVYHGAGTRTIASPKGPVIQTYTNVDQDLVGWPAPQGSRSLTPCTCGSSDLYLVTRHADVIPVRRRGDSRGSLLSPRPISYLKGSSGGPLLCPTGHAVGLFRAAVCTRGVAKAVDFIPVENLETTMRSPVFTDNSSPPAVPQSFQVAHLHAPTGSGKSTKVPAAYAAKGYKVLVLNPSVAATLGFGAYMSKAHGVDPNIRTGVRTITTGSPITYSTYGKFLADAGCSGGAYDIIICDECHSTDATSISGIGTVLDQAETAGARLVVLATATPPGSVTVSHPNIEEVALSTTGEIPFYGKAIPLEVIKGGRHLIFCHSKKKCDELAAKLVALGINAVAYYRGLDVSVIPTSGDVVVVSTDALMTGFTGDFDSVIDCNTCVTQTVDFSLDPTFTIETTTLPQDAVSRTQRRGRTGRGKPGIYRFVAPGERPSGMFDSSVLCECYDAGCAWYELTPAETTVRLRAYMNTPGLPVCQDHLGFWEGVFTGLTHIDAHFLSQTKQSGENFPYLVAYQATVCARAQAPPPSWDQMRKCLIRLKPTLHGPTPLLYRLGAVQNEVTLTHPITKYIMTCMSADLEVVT
UniProt P27958, 1658-1711: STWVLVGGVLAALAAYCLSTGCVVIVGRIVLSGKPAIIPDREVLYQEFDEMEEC

With CCC[C@H](NC(=O)[C@@H]1[C@@H]2[C@H](CN1C(=O)[C@@H](NC(=O)[C@@H](NC(=O)c1cnccn1)C1(C)CCCCC1)C(C)(C)C)C2(C)C)C(=O)C(=O)NC1CC1 [Entry 44] as the molecule, how does the Ki read?
Its Ki is no more than 100 nM.

With CC(C)(C)[C@H](NC(=O)[C@@H](NS(=O)(=O)c1cccs1)C1CCCCC1)C(=O)N1C[C@H]2[C@@H]([C@H]1C(=O)NC(CC1CC1)C(=O)C(N)=O)C2(C)C (some centres unmarked) [Entry 23] as the molecule, how does the Ki read?
The Ki was no more than 100 nM.

For C=CCNC(=O)C(=O)C(CC1CCC1)NC(=O)[C@@H]1[C@@H]2[C@H](CN1C(=O)[C@@H](NC(=O)[C@@H](NC(=O)c1cnccn1)C1CCCCC1)C1(C)CCCCC1)C2(C)C (some centres unmarked) [Entry 8], which Ki is on record?
Its Ki is no more than 100 nM.

With CCCC(NC(=O)[C@@H]1[C@@H]2[C@H](CN1C(=O)[C@@H](NC(=O)[C@@H](NC(=O)c1cnccn1)c1ccccc1)C(C)(C)C)C2(C)C)C(=O)C(N)=O (some centres unmarked) [Entry 15] as the molecule, how does the Ki read?
Its Ki is no more than 100 nM.

With CC(C)(C)[C@H](NC(=O)[C@@H](NS(=O)(=O)c1ccccc1)C1CCCCC1)C(=O)N1C[C@H]2[C@@H]([C@H]1C(=O)NC(CC1CC1)C(=O)C(N)=O)C2(C)C (some centres unmarked) [Entry 26] as the molecule, how does the Ki read?
The Ki was no more than 100 nM.

How did the Ki turn out when CC(C)(C)[C@H](NC(=O)[C@@H](NC(=O)c1cnccn1)c1ccccc1)C(=O)N1C[C@H]2[C@@H]([C@H]1C(=O)NC(CC1CC1)C(=O)C(N)=O)C2(C)C (some centres unmarked) [Entry 13] was run?
The Ki was no more than 100 nM.

How did the Ki turn out when CCC[C@H](NC(=O)[C@@H]1[C@@H]2[C@H](CN1C(=O)[C@@H](NC(=O)[C@@H](NC(=O)OC(C)(C)C)C1CCCCC1)C(C)(C)C)C2(C)C)C(=O)C(=O)NC1CC1 [Entry 38] was run?
The Ki was 100 to 1000 nM.

How did the Ki turn out when C=CCNC(=O)C(=O)C(CCC(F)(F)F)NC(=O)[C@@H]1[C@@H]2[C@H](CN1C(=O)[C@@H](NC(=O)[C@@H](NC(=O)c1cnccn1)C1CCCCC1)C(C)(C)C)C2(C)C (some centres unmarked) [Entry 33] was run?
The Ki was no more than 100 nM.

For C=CCNC(=O)C(=O)C(CCCC)NC(=O)[C@@H]1[C@@H]2[C@H](CN1C(=O)[C@@H](NC(=O)[C@@H](NS(=O)(=O)c1ccccc1)C1CCCCC1)C(C)(C)C)C2(C)C (some centres unmarked) [Entry 25], which Ki is on record?
Its Ki is 100 to 1000 nM.

C=CCNC(=O)C(=O)C(CCC)NC(=O)[C@@H]1[C@@H]2[C@H](CN1C(=O)[C@@H](NC(=O)[C@@H](NC(=O)c1cnccn1)C1CCCCC1)C1CCCCC1)C2(C)C (some centres unmarked) [Entry 2] was tested. Which Ki did it give?
The Ki was no more than 100 nM.

How did the Ki turn out when C=CCNC(=O)C(=O)C(CC1CC1)NC(=O)[C@@H]1[C@@H]2[C@H](CN1C(=O)[C@@H](NC(=O)[C@@H](NC(=O)c1cnccn1)C1CCCCC1)C1(C)CCCCC1)C2(C)C (some centres unmarked) [Entry 17] was run?
The Ki was no more than 100 nM.

Which Ki does the source give for C=CCNC(=O)C(=O)C(CC1CCC1)NC(=O)[C@@H]1[C@@H]2[C@H](CN1C(=O)[C@@H](NC(=O)[C@@H](NC(=O)c1cnccn1)c1ccccc1)C(C)(C)C)C2(C)C (some centres unmarked) [Entry 11] here?
Its Ki is 100 to 1000 nM.

For C#CCCC(NC(=O)[C@@H]1[C@@H]2[C@H](CN1C(=O)[C@@H](NC(=O)[C@@H](NC(=O)c1cnccn1)C1(C)CCCCC1)C1(C)CCCCC1)C2(C)C)C(=O)C(=O)NCC=C (some centres unmarked) [Entry 50], which Ki is on record?
The Ki was no more than 100 nM.

Which Ki does the source give for C=CCNC(=O)C(=O)C(CCCC)NC(=O)[C@@H]1[C@@H]2[C@H](CN1C(=O)[C@@H](NC(=O)[C@@H](NC(=O)c1cnccn1)C(C)(C)C)C(C)(C)C)C2(C)C (some centres unmarked) [Entry 21] here?
Its Ki is 100 to 1000 nM.

With CC(C)(C)[C@H](NC(=O)[C@@H](NC(=O)c1cnccn1)c1ccccc1)C(=O)N1C[C@H]2[C@@H]([C@H]1C(=O)NC(CC1CCC1)C(=O)C(N)=O)C2(C)C (some centres unmarked) [Entry 16] as the molecule, how does the Ki read?
The Ki was no more than 100 nM.

Which Ki does the source give for C=CCNC(=O)C(=O)C(CCC)NC(=O)[C@@H]1[C@@H]2[C@H](CN1C(=O)[C@@H](NC(=O)[C@@H](NC(=O)c1cnccn1)C1CCCCC1)C1Cc3ccccc3C1)C2(C)C (some centres unmarked) [Entry 41] here?
The Ki was no more than 100 nM.

CCC[C@H](NC(=O)[C@@H]1[C@@H]2[C@H](CN1C(=O)[C@@H](NC(=O)[C@@H](NC(=O)c1cccnc1)C1CCCCC1)C(C)(C)C)C2(C)C)C(=O)C(=O)NC1CC1 [Entry 42] was tested. Which Ki did it give?
Its Ki is no more than 100 nM.

Which Ki does the source give for C=CCNC(=O)C(=O)C(CCCC)NC(=O)[C@@H]1[C@@H]2[C@H](CN1C(=O)[C@@H](NC(=O)[C@@H](NS(=O)(=O)c1cccs1)C1CCCCC1)C(C)(C)C)C2(C)C (some centres unmarked) [Entry 24] here?
Its Ki is 100 to 1000 nM.

Which Ki does the source give for CCCCC(NC(=O)[C@@H]1[C@@H]2[C@H](CN1C(=O)[C@@H](NC(=O)[C@@H](NC(=O)c1cnccn1)C1CCCCC1)C(C)(C)C)C2(C)C)C(=O)C(=O)NC1CC1 (some centres unmarked) [Entry 43] here?
The Ki was no more than 100 nM.

Same assay, conditions: Table 3

For C#CCCC(NC(=O)[C@@H]1[C@@H]2[C@H](CN1C(=O)[C@@H](NC(=O)[C@@H](NC(=O)c1cnccn1)C1CCCCC1)C1(C)CCCCC1)C2(C)C)C(=O)C(=O)NCC=C (some centres unmarked) [Entry 4], which Ki is on record?
Its Ki is 5 nM.

Which Ki does the source give for C=CCNC(=O)C(=O)C(CCCC)NC(=O)[C@@H]1[C@@H]2[C@H](CN1C(=O)[C@@H](NC(=O)[C@@H](NC(=O)c1cnccn1)C1CCCCC1)C1(C)CCCCC1)C2(C)C (some centres unmarked) [Entry 12] here?
Its Ki is 13 nM.

With CC(C)(C)[C@H](NC(=O)[C@@H](NS(=O)(=O)c1ccccc1)C1CCCCC1)C(=O)N1C[C@H]2[C@@H]([C@H]1C(=O)NC(CC1CC1)C(=O)C(N)=O)C2(C)C (some centres unmarked) [Entry 20] as the molecule, how does the Ki read?
The Ki was 20 nM.

CC1([C@H](NC(=O)[C@@H](NC(=O)c2cnccn2)C2CCCCC2)C(=O)N2C[C@H]3[C@@H]([C@H]2C(=O)NC(CC2CCC2)C(=O)C(N)=O)C3(C)C)CCCCC1 (some centres unmarked) [Entry 1] was tested. Which Ki did it give?
The Ki was 3.2 nM.

For C=CCNC(=O)C(=O)C(CCCC)NC(=O)[C@@H]1[C@@H]2[C@H](CN1C(=O)[C@@H](NC(=O)[C@@H](NC(=O)c1cnccn1)C1CCCCC1)C(C)(C)C)C2(C)C (some centres unmarked) [Entry 16], which Ki is on record?
The Ki was 16 nM.

Which Ki does the source give for C=CCNC(=O)C(=O)C(CCC)NC(=O)[C@@H]1[C@@H]2[C@H](CN1C(=O)[C@@H](NC(=O)[C@@H](NC(=O)c1cnccn1)C1CCCCC1)C1CCCCC1)C2(C)C (some centres unmarked) [Entry 21] here?
The Ki was 22 nM.

Same assay, conditions: Table I; NS3/NS4a serine protease inhibitory activity

For C#CCCC(NC(=O)[C@@H]1[C@@H]2[C@H](CN1C(=O)[C@@H](NC(=O)[C@@H](NC(=O)c1cnccn1)C1CCCCC1)C(C)(C)C)C2(C)C)C(=O)C(=O)NCC=C (some centres unmarked) [Entry 2], which Ki is on record?
Its Ki is 6 nM.

— patent US7485625B2, “Inhibitors of hepatitis C virus NS3/NS4a serine protease” (Schering Corporation, priority 2003, dated 2009)
